## Experimental water solubility values from OPERA 2.9

From the experimental data distributed with OPERA 2.9.

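OPERA's authors assembled the values from existing databases and did not measure them anew. One number stands for a compound and property, with no spread given. Method, purity and exact conditions of the single measurements are not given. Where a salt, mixture or single isomer is drawn, the source does not say that exactly this form was tested. Unmarked limits or estimates from the upstream databases cannot be ruled out.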

Water solubility is log10 of mol/L, nominally at 25 °C; higher is more soluble.
"n/a" marks a cell with nothing listed here.

log S (log10 mol/L) | compound | name
-0.752 | O=S(=O)([O-])c1cc(S(=O)(=O)[O-])c2c(/N=N/c3ccccc3)c(O)ccc2c1.[Na+].[Na+] | C.I. Acid Orange 10
-3.335 | O=c1cnc2c(=O)[nH]c(=O)[nH]c2[nH]1 | Violapterin
-2.689 | COc1ccccc1C | Benzene, 1-methoxy-2-methyl-
-2.32 | CCN(CC)C(=O)c1cccc(C)c1 | DEET
-0.264 | COC(=O)[C@H]1O[C@H](OC)[C@H](O)[C@@H](O)[C@H]1O | Methyl alpha-D-galactopyranosiduronic acid methyl ester
-5.886 | CCn1c(=O)c2c(nc(/C=C/c3ccc(OC)c(OC)c3)n2C)n(CC)c1=O | Istradefylline
-3.759 | O=C(O)C(c1ccccc1)(c1ccccc1)c1ccccc1 | Triphenylacetic acid
-1.574 | COc1cc2oc(C)cc(=O)c2c(OC)c1OC | 5,6,7-Trimethoxy-2-methyl-4H-1-benzopyran-4-one
-5.453 | CC(C)[C@@H]1NC(=O)[C@H](CCCCN)NC(=O)[C@@H](Cc2c[nH]c3ccccc23)NC(=O)[C@H](Cc2ccc(O)cc2)NC(=O)[C@@H](NC(=O)[C@H](N)Cc2ccccc2)CSSC[C@@H](C(=O)N[C@@H](Cc2c[nH]c3ccccc23)C(N)=O)NC1=O | Vapreotide
-2.665 | C#CCOc1c(I)cc(I)cc1/C=N/NC(=O)Cn1nnc(-c2ccccc2Cl)n1 | AC1NSYH9
-7.851 | CCCCCCCCCCCCCCCCCCCCCCCCC | Pentacosane
-5.747 | Cc1cccc([NH+]([O-])S(=O)(=O)c2ccc(N)cc2)n1 (stereo not given) | N1-(6-Methyl-2-pyridyl)sulfanilamide N-oxide
-1.782 | CC(=O)Oc1ccccc1C(=O)OC[S+](C)[O-] (stereo not given) | ({[2-(Acetyloxy)benzoyl]oxy}methyl)(methyl)sulfaniumolate
-8.06 | Clc1ccc(Oc2cc(Cl)c(Cl)c(Cl)c2Cl)cc1 | 2,3,4,4',5-pentachlorodiphenyl ether
0.45 | Cc1cccc(C)n1 | 2,6-Dimethylpyridine
-8.142 | Cc1[nH]n(-c2ccccc2)c(=O)c1N=Nc1ccc(-c2ccc(N=Nc3c(C)[nH]n(-c4ccccc4)c3=O)c(Cl)c2)cc1Cl | C.I. Pigment Orange 13
-1.591 | CC1(C)CC(=O)C(CC2C(=O)CC(C)(C)CC2=O)C(=O)C1 | 2,2'-Methylenebis(5,5-dimethylcyclohexane-1,3-dione)
-2.421 | COc1ccc2cc(C(C)=O)ccc2c1 | 2-Acetyl-6-methoxynaphthalene
-6.11 | Clc1cc(Cl)c(Oc2ccccc2)c(Cl)c1 | 2,4,6-Trichlorodiphenyl ether
0.39 | OC1CO[C@@H](O)C(O)C1O (stereo in doubt) | L-Arabinopyranose
-0.069 | Nc1cc(S(=O)(=O)O)c(N)c(S(=O)(=O)O)c1 | 2,5-Diaminobenzene-1,3-disulfonic acid
-5.36 | Brc1ccc(Br)c2ccccc12 | Naphthalene, 1,4-dibromo-
-3.108 | O=c1n(CCCN2CCN(c3cccc(Cl)c3)CC2)nc2ccccn12 | Trazodone
-2.81 | CCC(=O)Nc1c(I)c(NC(=O)CC)c(I)c(C(=O)O)c1I | Diprotrizoic acid
-1.33 | CCCC(=O)OCC(O)CO (stereo not given) | Butanoic acid, 2,3-dihydroxypropyl ester
-4.177 | CC1CCC(C(C)C)c2cnc(NS(=O)(=O)c3ccc(N)cc3)nc21 (stereo not given) | n/a
0.521 | O=C(O)C(=O)c1ccccc1C(=O)O | Phthalonic acid
-1.933 | OC(c1ccccc1)C(O)c1ccccc1 (racemic) | n/a
-3.23 | CC(C)NCC(O)COc1cccc2ccccc12 (stereo not given) | Propranolol
-2.225 | CC1(C(=O)O)CCC2(C)CCC3(C)C(=CC(=O)C4C5(C)CCC(OC6OC(C(=O)O)C(O)C(O)C6OC6OC(C(=O)[O-])C(O)C(O)C6O)C(C)(C)C5CCC43C)C2C1.[NH4+] (stereo not given) | Ammonium glycyrrhizate
-0.186 | CC[C@H]1OC(=O)C[C@@H](O)[C@H](C)[C@@H](O[C@@H]2O[C@H](C)[C@@H](O)[C@H](N(C)C)[C@H]2O)[C@@H](CCN2C[C@H](C)C[C@H](C)C2)C[C@@H](C)C(=O)C=CC(C)=C[C@@H]1CO[C@@H]1O[C@H](C)[C@@H](O)[C@@H](OC)[C@H]1OC | Tilmicosin
-7.88 | Clc1cc(Cl)c(Oc2c(Cl)ccc(Cl)c2Cl)cc1Cl | 2,2',3,4',5',6-Hexachlorodiphenylether
-5.061 | CCCCCCCCCCCC=O | Dodecanal
-2.32 | CCC(C)C(=O)OC(C)C (stereo not given) | Isopropyl 2-methylbutyrate
-1.843 | O=CC(C(=O)O)(c1ccccc1)[N+](=O)[O-] (stereo not given) | Benzenepropanoic acid, 2-nitro-b-oxo-
-5.35 | CC(=O)c1c2ccccc2cc2ccccc12 | 9-Anthryl methyl ketone
-0.06 | CCC1NC(=O)NC1=O (stereo not given) | n/a
-1.957 | Cc1ccc(O)c(C(C)C)c1 | 2-Isopropyl-p-cresol
-1.319 | Cc1cc2cccc(O)c2nc1C | 2,3-Dimethylquinoline-8-ol
-4.302 | O=C(O)CSC(c1ccccc1)(c1ccccc1)c1ccccc1 | 2-(tritylthio)acetic acid
-0.297 | CC1C(=O)CCC2C(O)CCC(O)C12 (stereo not given) | 5,8-Dihydroxy-1-methyloctahydronaphthalen-2(1H)-one
-2.916 | FC(F)(F)c1ccccc1 | Benzotrifluoride
-4.333 | FC(F)(F)C(Cl)(Cl)Cl | 1,1,1-Trichloro-2,2,2-trifluoroethane
-7.692 | O=C(Nc1cc(Cl)c(NC(=O)c2cc3ccccc3c(N=Nc3cc(C(F)(F)F)ccc3Cl)c2O)cc1Cl)c1cc2ccccc2c(N=Nc2cc(C(F)(F)F)ccc2Cl)c1O | Pigment Red 242
-4.47 | CCNc1nc(=O)nc(NC(C)(C)C)[nH]1 | n/a
-2.755 | Cc1c(F)c(N2CCNC(C)C2)cc2c1c(=O)c(C(=O)O)cn2C1CC1 (stereo not given) | Grepafloxacin
-4.175 | C=C[C@@H]1C[C@]1(NC(=O)[C@@H]1C[C@@H](Oc2ncc(OC)c3ccc(Cl)cc23)CN1C(=O)[C@@H](NC(=O)OC(C)(C)C)C(C)(C)C)C(=O)NS(=O)(=O)C1CC1 | Asunaprevir

Excerpt, the final 6 entries:

{"smiles": "FC(F)(F)c1ccccc1", "name": "Benzotrifluoride", "log S (log10 mol/L)": "-2.916"}
{"smiles": "FC(F)(F)C(Cl)(Cl)Cl", "name": "1,1,1-Trichloro-2,2,2-trifluoroethane", "log S (log10 mol/L)": "-4.333"}
{"smiles": "O=C(Nc1cc(Cl)c(NC(=O)c2cc3ccccc3c(N=Nc3cc(C(F)(F)F)ccc3Cl)c2O)cc1Cl)c1cc2ccccc2c(N=Nc2cc(C(F)(F)F)ccc2Cl)c1O", "name": "Pigment Red 242", "log S (log10 mol/L)": "-7.692"}
{"smiles": "CCNc1nc(=O)nc(NC(C)(C)C)[nH]1", "log S (log10 mol/L)": "-4.47"}
{"smiles": "Cc1c(F)c(N2CCNC(C)C2)cc2c1c(=O)c(C(=O)O)cn2C1CC1", "stereo": "stereo not given", "name": "Grepafloxacin", "log S (log10 mol/L)": "-2.755"}
{"smiles": "C=C[C@@H]1C[C@]1(NC(=O)[C@@H]1C[C@@H](Oc2ncc(OC)c3ccc(Cl)cc23)CN1C(=O)[C@@H](NC(=O)OC(C)(C)C)C(C)(C)C)C(=O)NS(=O)(=O)C1CC1", "name": "Asunaprevir", "log S (log10 mol/L)": "-4.175"}